{"source": "ChEMBL document CHEMBL5053555", "about": "“Design, Synthesis, and Evaluation of Potent, Selective, and Bioavailable AKT Kinase Degraders” (J Med Chem, 2021)", "test_system": "BT-474", "experiment": "Antiproliferative activity against human BT-474 cells assessed as growth inhibition incubated for 5 days by IncuCyte live-cell imaging analysis", "assay_type": "functional", "conditions": "BT-474, 120 h, time 5 day"}
{"smiles": "CC(C)NC[C@@H](C(=O)N1CCN(c2ncnc3c2[C@H](C)C[C@H]3O)CC1)c1ccc(Cl)cc1", "note": "[IPATASERTIB]", "values": [{"measurement": "GI50", "result": 300, "unit": "nM"}]}
